“Also recorded” adds a separate entry of the source.
What was measured:
CHT [1] = molecular target: T1, CHT (Homo sapiens, UniProt Q9GZV3); assay: Live cell anti-FLAG immunolabeling of CHT cell surface localization in CHT-WT4 cells; assay type: cell-based; parameters: expressed in transfected cells; host or cells: HEK-293, lentiviral transduction, single-cell clone CHT-WT4; conditions: 1 or 10 μM for 1 h, qualitative observations
T1 sequence (Q9GZV3 1-580): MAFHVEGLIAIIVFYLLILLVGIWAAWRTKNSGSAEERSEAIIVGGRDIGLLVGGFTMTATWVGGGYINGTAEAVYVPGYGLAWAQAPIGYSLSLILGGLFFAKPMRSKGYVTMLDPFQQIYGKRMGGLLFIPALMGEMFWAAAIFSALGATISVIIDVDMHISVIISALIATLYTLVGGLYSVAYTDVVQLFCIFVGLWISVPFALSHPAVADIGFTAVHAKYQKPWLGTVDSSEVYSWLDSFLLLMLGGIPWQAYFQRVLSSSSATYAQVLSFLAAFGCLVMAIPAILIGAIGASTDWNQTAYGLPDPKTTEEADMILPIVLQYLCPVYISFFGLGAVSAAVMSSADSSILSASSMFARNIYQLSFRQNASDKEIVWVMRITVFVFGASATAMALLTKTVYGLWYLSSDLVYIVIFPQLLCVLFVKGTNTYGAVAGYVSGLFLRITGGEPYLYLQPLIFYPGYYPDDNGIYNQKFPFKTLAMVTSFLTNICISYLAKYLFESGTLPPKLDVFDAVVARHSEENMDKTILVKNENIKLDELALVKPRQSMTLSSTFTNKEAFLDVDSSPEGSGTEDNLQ
Description: Media was removed and cells were washed once with HBSS (+/+). 1 μg/mL Anti-FLAG antibody (F3165, Sigma) was diluted in HBSS (+/+) and added to the cellular monolayer for 30 mins. After incubation, cells were washed three times with HBSS (+/+) followed by incubation with 1:5,000 AF488 labeled secondary antibody (LifeTech) diluted in HBSS (+/+) for 30 min. After three washes, cells were fixed with 4% paraformaldehyde in HBSS (+/+) for 15 min. Nuclei were counterstained with the nuclear dye Hoechst. All images were captured and analyzed on an epifluorescent microsope or Cellomics platform.
Thus, understanding compound effects on CHT density and activation state in the synaptic membrane may aid interpretation of the effects on cholinergic neurotransmission. Conventional methods such as cell surface biotinylation present challenges in terms of the requirement of large quantities of cells and low throughput. […] Our CHT overexpression construct contains a FLAG tag on the N-terminus which we sought to utilize with antibody detection in non-permeabilized cells. […] We proceeded to investigate the effect of compound treatment in more detail. Cells were incubated with compounds at 1 or 10 μM for 1 h before immunolabeling and visualization.

CHT [2] = molecular target: T1, CHT; conditions: HEK293 CHT-WT4, DMSO negative control, 10 μM STS positive control
CHT LV-AA mutant = CHT LV-AA mutant (Homo sapiens, UniProt Q9GZV3, L531A/V532A)
Description: Uptake of [^3H]Choline (American Radiochemicals; ART 0197; 1,000 Ci/vial; Specific Activity 60–90 Ci/mmol) was measured in HEK cells expressing the high affinity choline transporter (CHT), clone WT4. Cells were plated at 50,000 cells /well in 200 μL culture media on a PDL coated Cytostar-T 96 well plate (Perkin Elmer) 24 h prior to assay. On the day of assay, following two washes and a 30 min pre-incubation at 37°C in 50 μL Na(−) free buffer (0.54 mM KCl, 1.3 mM CaCl2, 0.53 mM MgCl2, 0.4 mM MgSO4, 0.37 mM KH2PO4, 240 mM Sucrose, 4.4 mM Tris-phosphate, 5.5 mM Glycine, 5.6 mM D-Glucose; pH 6.5 with KOH), 25 μL 4X control or test compounds in Na(−) buffer were added to the cells. […] Final DMSO concentration was 0.25%. Following a 30 min incubation at 37°C, 25 μL [^3H]Choline diluted to 320 nM (80 nM final concentration) was added in Na(+) buffer (0.54 mM KCl, 1.3 mM CaCl2, 0.53 mM MgCl2, 0.4 mM MgSO4, 0.37 mM KH2PO4, 138 mM NaCl, 0.28 mM Na2HPO4, 5.5 mM Glycine, 5.6 mM D-Glucose; pH 6.5 with KOH). Plates were sealed with TopSeals (Perkin Elmer) and incubated in darkness for 3 h at room temperature before reading using a Wallac Microbeta, 1 min/well.
A preponderance of literature precedent for measuring high affinity choline uptake (HACU) utilizes a radiometric assay to measure [^3H]Choline transport in preparations.

CHT [3] = molecular target: T1, CHT; assay: SURFE2R solid supported membrane (SSM) electrophysiology on CHT-WT4 membrane fragments; assay type: biochemical; parameters: expressed in transfected cells; host or cells: HEK-293, lentiviral transduction, single-cell clone CHT-WT4; conditions: CHT-WT4 membrane preparations

Question: Which “Effect on cell surface localization of CHT” value (CHT [1]) does the source give for `CN[C@@H]1C[C@H]2O[C@@](C)([C@@H]1OC)n1c3ccccc3c3c4c(c5c6ccccc6n2c5c31)C(=O)NC4` [STS, staurosporine, reference compound] here?
Answer: increase in cell surface localization; also recorded: increased cell surface localization

Question: What about the “D9-choline uptake % effect 1 μM” value (CHT [2]; 1 μM compound) of the same molecule?
Answer: 48.4%

Question: And the “D9-choline uptake % effect 10 μM” value (CHT [2]; 10 μM compound)?
Answer: 87.9%

Question: And the “Stimulatory effect on CHT-mediated transport” value (CHT LV-AA mutant)?
Answer: no apparent effect

Question: What about the “Effect on CHT current (SURFE2R)” value (CHT [3]) of the same molecule?
Answer: not able to detect any effect; also recorded: Lack of activity

From PMC5326799, “Discovery of Compounds that Positively Modulate the High Affinity Choline Transporter” (Frontiers in Molecular Neuroscience, 2017)
